# Measured values from US11078166B2, “Triazole conjugated ureas, thioureas, carbamates, and reversed carbamates for PSMA-targeted imaging agents and uses thereof” (THE JOHNS HOPKINS UNIVERSITY, priority 2015, dated 2021).
# Like-named read-outs stand apart in the source and are kept apart here.
# Test system: PSMA^+ PC3 PIP and PSMA^− PC3 flu tumors
smiles,measurement,setting,value
"O=C(O)CCC(NC(=O)NC(CCCCNC(=O)c1ccc([18F])nc1)C(=O)O)C(=O)O (stereo not drawn) [[^18F]DCFPyL, 2-(3-{1-carboxy-5-[(6-[^18F]fluoropyridine-3-carbonyl)-amino]-pentyl}-ureido)-pentanedioic acid, reference compound]","Biodistribution, bladder (empty)",30 min post-injection,20.28 ± 12.32 % ID/g
same,"Biodistribution, bone",30 min post-injection,1.00 ± 0.51 % ID/g
same,"Biodistribution, kidney",30 min post-injection,123.69±8.05 % ID/g
same,"Biodistribution, lung",30 min post-injection,3.00 ± 0.34 % ID/g
same,"Biodistribution, pancreas",30 min post-injection,1.07 ± 0.12 % ID/g
same,"Biodistribution, stomach",30 min post-injection,0.90 ± 0.14 % ID/g
same,"Biodistribution, bladder (empty)",60 min post-injection,11.60 ± 5.41 % ID/g
same,"Biodistribution, kidney",60 min post-injection,128.13 ± 15.02 % ID/g
same,"Biodistribution, stomach",60 min post-injection,0.50 ± 0.10 % ID/g
same,"Biodistribution, large intestine",120 min post-injection,0.52 ± 0.35 % ID/g
same,"Biodistribution, muscle",120 min post-injection,0.08 ± 0.02 % ID/g
same,"Biodistribution, fat",240 min post-injection,0.10 ± 0.05 % ID/g
same,"Biodistribution, heart",240 min post-injection,0.06 ± 0.01 % ID/g
same,"Biodistribution, muscle",240 min post-injection,0.07 ± 0.04 % ID/g
same,"Biodistribution, pancreas",240 min post-injection,0.09 ± 0.02 % ID/g
same,"Biodistribution, stomach",240 min post-injection,0.09 ± 0.03 % ID/g
O=C(O)CC[C@H](NC(=O)N[C@@H](CCCCNC(=O)CCCCCCC(=O)N[C@@H](CCCCNC(=O)CCc1cn(CC[18F])nn1)C(=O)O)C(=O)O)C(=O)O [[^18F]YC-71],"Biodistribution, PSMA+ PC3 PIP tumor uptake",30 min post-injection,38.35±3.06 % ID/g
same,"Biodistribution, PSMA− PC3 flu tumor uptake",30 min post-injection,0.53 ± 0.13 % ID/g
same,"Biodistribution, bladder (empty)",30 min post-injection,11.68 ± 3.49 % ID/g
same,"Biodistribution, blood",30 min post-injection,0.84 ± 0.15 % ID/g
same,"Biodistribution, bone",30 min post-injection,0.33 ± 0.15 % ID/g
same,"Biodistribution, fat",30 min post-injection,0.42 ± 0.07 % ID/g
same,"Biodistribution, heart",30 min post-injection,0.35 ± 0.07 % ID/g
same,"Biodistribution, kidney",30 min post-injection,70.86 ± 7.48 % ID/g
same,"Biodistribution, large intestine",30 min post-injection,0.65 ± 0.16 % ID/g
same,"Biodistribution, liver",30 min post-injection,18.89 ± 1.36 % ID/g
same,"Biodistribution, lung",30 min post-injection,1.55 ± 0.25 % ID/g
same,"Biodistribution, muscle",30 min post-injection,0.24 ± 0.05 % ID/g
same,"Biodistribution, pancreas",30 min post-injection,0.62 ± 0.09 % ID/g
same,"Biodistribution, small intestine",30 min post-injection,0.38 ± 0.06 % ID/g
same,"Biodistribution, spleen",30 min post-injection,4.92 ± 0.54 % ID/g
same,"Biodistribution, stomach",30 min post-injection,0.52 ± 0.09 % ID/g
same,PIP/flu uptake ratio,30 min post-injection,72
same,"Biodistribution, PSMA+ PC3 PIP tumor uptake",60 min post-injection,41.66±8.16 % ID/g
same,"Biodistribution, PSMA− PC3 flu tumor uptake",60 min post-injection,0.28 ± 0.02 % ID/g
same,"Biodistribution, bladder (empty)",60 min post-injection,1.59 ± 1.09 % ID/g
same,"Biodistribution, blood",60 min post-injection,0.24 ± 0.02 % ID/g
same,"Biodistribution, bone",60 min post-injection,0.15 ± 0.01 % ID/g
same,"Biodistribution, fat",60 min post-injection,0.32 ± 0.07 % ID/g
same,"Biodistribution, heart",60 min post-injection,0.17 ± 0.04 % ID/g
same,"Biodistribution, kidney",60 min post-injection,70.63 ± 19.18 % ID/g
same,"Biodistribution, large intestine",60 min post-injection,0.27 ± 0.03 % ID/g
same,"Biodistribution, liver",60 min post-injection,21.52 ± 3.82 % ID/g
same,"Biodistribution, lung",60 min post-injection,0.82 ± 0.16 % ID/g
same,"Biodistribution, muscle",60 min post-injection,0.09 ± 0.00 % ID/g
same,"Biodistribution, pancreas",60 min post-injection,0.33 ± 0.09 % ID/g
same,"Biodistribution, small intestine",60 min post-injection,0.20 ± 0.09 % ID/g
same,"Biodistribution, spleen",60 min post-injection,3.54 ± 0.89 % ID/g
same,"Biodistribution, stomach",60 min post-injection,0.32 ± 0.08 % ID/g
same,PIP/flu uptake ratio,60 min post-injection,146
same,"Biodistribution, PSMA+ PC3 PIP tumor uptake",120 min post-injection,39.81±3.65 % ID/g
same,"Biodistribution, PSMA− PC3 flu tumor uptake",120 min post-injection,0.12 ± 0.03 % ID/g
same,"Biodistribution, bladder (empty)",120 min post-injection,6.34 ± 6.91 % ID/g
same,"Biodistribution, blood",120 min post-injection,0.08 ± 0.01 % ID/g
same,"Biodistribution, bone",120 min post-injection,0.07 ± 0.02 % ID/g
same,"Biodistribution, heart",120 min post-injection,0.07 ± 0.01 % ID/g
same,"Biodistribution, kidney",120 min post-injection,34.35 ± 6.99 % ID/g
same,"Biodistribution, large intestine",120 min post-injection,0.12 ± 0.06 % ID/g
same,"Biodistribution, liver",120 min post-injection,19.75 ± 0.93 % ID/g
same,"Biodistribution, lung",120 min post-injection,0.31 ± 0.03 % ID/g
same,"Biodistribution, muscle",120 min post-injection,0.04 ± 0.01 % ID/g
same,"Biodistribution, pancreas",120 min post-injection,0.17 ± 0.06 % ID/g
same,"Biodistribution, small intestine",120 min post-injection,0.21 ± 0.04 % ID/g
same,"Biodistribution, spleen",120 min post-injection,0.91 ± 0.53 % ID/g
same,"Biodistribution, stomach",120 min post-injection,0.13 ± 0.06 % ID/g
same,PIP/flu uptake ratio,120 min post-injection,323
same,PSMA− PC3 flu tumor uptake (in words),all time points,low
"O=C(O)CC[C@H](NC(=O)N[C@@H](CCCCNC(=O)CCc1cn(CC[18F])nn1)C(=O)O)C(=O)O [[^18F]YC-88, 2-[3-(1-carboxy-5-{3-[1-(2-[^18F]fluoroethyl)-1H-1,2,3-triazol-yl]propanamido}pentyl)ureido]-pentanedioic acid]",Salivary gland uptake compared to [^18F]DCFPyL (in words),30 min and 1 h post-injection,significantly less
same,"Biodistribution, bone",30 min post-injection,0.40 ± 0.16 % ID/g
same,PIP/flu uptake ratio,30 min post-injection,70
same,PIP/kidney (tumor-to-kidney) uptake ratio,30 min post-injection,0.9
same,"Biodistribution, heart",120 min post-injection,0.07 ± 0.02 % ID/g
same,"Biodistribution, muscle",120 min post-injection,0.10 ± 0.03 % ID/g
same,PIP/kidney (tumor-to-kidney) uptake ratio,120 min post-injection,4
same,"Biodistribution, PSMA− PC3 flu tumor uptake",240 min post-injection,0.07 ± 0.01 % ID/g
same,"Biodistribution, fat",240 min post-injection,0.10 ± 0.04 % ID/g
same,"Biodistribution, heart",240 min post-injection,0.04 ± 0.01 % ID/g
same,"Biodistribution, muscle",240 min post-injection,0.06 ± 0.03 % ID/g
same,"Biodistribution, pancreas",240 min post-injection,0.07 ± 0.02 % ID/g
same,"Biodistribution, stomach",240 min post-injection,0.06 ± 0.02 % ID/g
same,Bone uptake,all time points,< 1 % ID/g
same,"Kidney, liver and spleen uptake compared to [^18F]DCFPyL (in words)",all time points,significantly lower
same,PSMA− PC3 flu tumor uptake (in words),all time points,low
same,Nontarget tissue uptake (in words),at or after 30 min post-injection,minimal nontarget tissue uptake
